This is an account of results in patent US11466013B2 (Betta Pharmaceuticals Co., LTD, priority 2018, dated 2022).

Sequences of proteins named here, by UniProt entry; tags and fusion partners are left off.
UniProt P28482, whole entry: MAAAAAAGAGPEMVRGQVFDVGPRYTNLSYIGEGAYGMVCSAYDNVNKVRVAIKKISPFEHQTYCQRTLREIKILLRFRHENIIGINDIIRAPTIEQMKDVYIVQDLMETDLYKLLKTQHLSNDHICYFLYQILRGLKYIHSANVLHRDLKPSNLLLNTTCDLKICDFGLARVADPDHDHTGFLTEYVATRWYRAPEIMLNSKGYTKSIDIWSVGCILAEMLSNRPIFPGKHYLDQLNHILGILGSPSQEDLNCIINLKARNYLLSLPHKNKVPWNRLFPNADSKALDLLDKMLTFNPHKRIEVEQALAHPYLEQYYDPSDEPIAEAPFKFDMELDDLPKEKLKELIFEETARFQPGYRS
UniProt P27361, whole entry: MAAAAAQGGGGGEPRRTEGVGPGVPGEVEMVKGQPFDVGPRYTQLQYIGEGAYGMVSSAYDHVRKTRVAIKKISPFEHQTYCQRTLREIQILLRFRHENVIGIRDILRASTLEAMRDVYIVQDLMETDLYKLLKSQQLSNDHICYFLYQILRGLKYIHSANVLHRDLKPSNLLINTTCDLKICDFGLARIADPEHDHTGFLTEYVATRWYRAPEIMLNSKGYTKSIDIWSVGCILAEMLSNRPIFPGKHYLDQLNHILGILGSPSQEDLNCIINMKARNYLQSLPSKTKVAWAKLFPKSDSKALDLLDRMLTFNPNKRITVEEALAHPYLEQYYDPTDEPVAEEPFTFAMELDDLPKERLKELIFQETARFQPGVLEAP

Usually IC50 stands for the concentration that gives 50% inhibition.

Assay [1] has as its target ERK2 (Homo sapiens, UniProt P28482). As to the kind of experiment: Kinase assay (Caliper, FAM-labeled peptide), ERK2. The conditions noted are these: read-out: IC50(nM) ERK2. The method, then:
(§1) The compound was diluted to the desired concentration with DMSO, transferred 100 μL to a 96-well plate, and performed a gradient dilution 10 μL of compound from each well was taken and mixed with 90 μL of kinase buffer, and then transferred 5 μL from each well to a 384-well plate. Kinase and FAM-labeled peptide and ATP were added to 1× kinase alkaline buffer to obtain 2.5× enzyme solution and 2.5× peptide solution, 10 μL of 2.5× enzyme solution was added to the 384-well assay plate. After incubating for 10 minutes at room temperature, 10 μL of 2.5× peptide solution was added to the 384-well plate. After reacting for a specific time at […], 25 μL of termination buffer was added to stop reaction. After reading the collected data on Caliper, the data was converted to inhibition percentage. Inhibition percentage=(maximum value−conversion value)/(maximum value−minimum value)*100.
(§2) The “maximum” is the DMSO control, the “minimum” indicates the low control.
(§3) Graphpad Prism software was used to perform curve fitting and obtain IC50 value.

For assay [2], the target named is ERK1 (Homo sapiens, UniProt P27361). The assay is described as follows: Kinase assay (Caliper, FAM-labeled peptide), ERK1. The conditions noted are these: read-out: IC50(nM) ERK1. How it is done: as §1, §2, §3

Regarding `COC[C@H]1Cn2cc(-c3cc(NC(C)C)ncc3F)cc2C(=O)N1Cc1cc(F)ccc1CO`, the IC50 in assay [1] is 0.87 nM; in assay [2] it was 0.76 nM.
